In ChEMBL document CHEMBL1140464, “Synthesis and structure-activity relationship of 4-(2-aryl-cyclopropylamino)-quinoline-3-carbonitriles as EGFR tyrosine kinase inhibitors” (Bioorg Med Chem Lett, 2007) one finds Ki data, which are given here for one compound.

Amino acid sequences for entries named in this document (tags omitted).
UniProt P00519, whole entry: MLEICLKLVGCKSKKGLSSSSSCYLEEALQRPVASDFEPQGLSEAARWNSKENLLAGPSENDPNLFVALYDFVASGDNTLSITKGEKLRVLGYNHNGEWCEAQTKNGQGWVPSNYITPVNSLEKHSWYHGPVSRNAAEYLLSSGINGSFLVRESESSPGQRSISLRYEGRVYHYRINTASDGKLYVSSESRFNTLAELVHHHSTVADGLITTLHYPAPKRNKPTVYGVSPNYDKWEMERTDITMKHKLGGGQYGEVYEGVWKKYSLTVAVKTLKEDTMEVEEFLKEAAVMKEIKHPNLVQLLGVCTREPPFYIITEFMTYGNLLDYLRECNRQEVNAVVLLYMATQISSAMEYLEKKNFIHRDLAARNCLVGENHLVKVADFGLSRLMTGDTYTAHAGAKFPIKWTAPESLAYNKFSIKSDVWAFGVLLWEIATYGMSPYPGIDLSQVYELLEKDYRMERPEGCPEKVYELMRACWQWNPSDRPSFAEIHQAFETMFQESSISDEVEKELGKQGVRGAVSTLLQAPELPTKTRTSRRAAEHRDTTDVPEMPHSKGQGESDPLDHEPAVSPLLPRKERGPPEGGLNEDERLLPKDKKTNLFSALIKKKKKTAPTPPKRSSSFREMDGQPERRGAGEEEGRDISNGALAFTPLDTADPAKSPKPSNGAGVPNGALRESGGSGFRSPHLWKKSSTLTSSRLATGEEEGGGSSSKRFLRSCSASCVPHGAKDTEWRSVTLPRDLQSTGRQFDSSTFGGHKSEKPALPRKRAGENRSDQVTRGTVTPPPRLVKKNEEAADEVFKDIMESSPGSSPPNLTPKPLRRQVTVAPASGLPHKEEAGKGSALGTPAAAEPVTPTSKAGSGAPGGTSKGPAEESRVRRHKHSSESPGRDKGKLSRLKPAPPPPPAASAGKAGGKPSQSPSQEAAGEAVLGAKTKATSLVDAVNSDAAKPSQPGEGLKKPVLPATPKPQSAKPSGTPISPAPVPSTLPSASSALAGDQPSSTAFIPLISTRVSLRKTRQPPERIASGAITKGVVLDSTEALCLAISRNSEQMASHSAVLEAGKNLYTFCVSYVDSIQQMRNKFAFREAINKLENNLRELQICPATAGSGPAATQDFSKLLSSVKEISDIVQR

Each structure is given as a SMILES string.

This experiment deals with Tyrosine-protein kinase ABL1 (Homo sapiens, UniProt P00519). As to the kind of experiment: Inhibition of ABL.

For orientation: Ki means a measure of affinity in units of concentration, obtained from inhibition or displacement. A high value points to weaker binding. The compound `N#Cc1cnc2cc(-c3ccc(CN4CCOCC4)cc3)ccc2c1N[C@@H]1C[C@H]1c1ccccc1` gave a Ki of 300 nM.
